Laboratory results taken from ChEMBL document CHEMBL1138680, “Phenoxyphenyl pyridines as novel state-dependent, high-potency sodium channel inhibitors” (J Med Chem, 2004).

What was measured:
[1] = molecular target: Sodium channel protein type 2 subunit alpha (Rattus norvegicus) (UniProt P04775); assay: Dissociation constant for binding to inactivated state of rat brain NaIIa (rNav1.2) -B2 cell line stably expressed in HEK293 Cells
[2] = Ratio between Kr to Ki; type: functional
[3] = molecular target: Sodium channel protein type 2 subunit alpha, Nav1.2 (Rattus norvegicus) (UniProt P04775); assay: Dissociation constant for binding to resting state of rat brain NaIIa (rNav1.2) -B2 cell line stably expressed in HEK293 Cells

Ratio [2]: 60
Structure (SMILES): Nc1nnc(-c2cccc(Cl)c2Cl)c(N)n1 [LAMOTRIGINE]
Ki [1]: 29.2 µM
kR [3]: 1760 µM
